The record followed here is PubChem BioAssay AID1347120 (National Center for Advancing Translational Sciences (NCATS), 2019).

The list shows a part of the results, in another mix than the full data. Results filed as inconclusive are left out. Active and inactive are the calls of the source. Calls follow the shape of the dose curve; as a rule, active = well fitted activation curve with a large enough effect; inconclusive = small, poorly fitted or top-dose-only effect; inactive = no such curve, though single readings can be large or run the other way.

A short description of the experiment: qHTS for Suppressors of FUS Proteinopathy: Primary screen using FUS-linked yeast assay.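 Also: plate controls were DMSO vehicle for no effect and reference control for full effect; nearly all actives have a fitted effect of over 55% in size.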 As to conditions: S. cerevisiae FUS-expressing, OD600, 24 h; at 76.6 µM (top of the series). An excerpt: Several widespread neurodegenerative diseases, including Alzheimer disease, Huntington disease, Frontotemporal Lobar Degeneration (FTLD) and Amyotrophic Lateral Sclerosis (ALS), share a common pathological feature, namely accumulation of specific protein aggregates in diseased tissue. These diseases which is associated with protein misfolding (proteinopathies) have become increasingly problematic as the population ages and life expectancies are extended. Most proteinopathies are currently incurable, a situation confounded by the fact that the basis of neurodegeneration is generally poorly understood. There exists urgent and significant need to find therapeutics that can inhibit the toxicity associated with protein aggregation. A novel approach to understand the underlying mechanisms of neurodegenerative diseases has recently emerged in which the disease conditions are modeled in the yeast (Saccharomyces cerevisiae), a tractable eukaryotic organism with conserved protein quality control mechanisms. Yeast offers quick and reliable genetic manipulations and can be easily tailored to high-throughput screening (HTS).
For this project, a yeast model of the FUS proteinopathies (a spectrum of neurodegenerative diseases that include ALS and a subtype of FTLD) was generated and employed. The cytoplasmic accumulation of the DNA/RNA-binding protein FUS (also known as TLS) is causative to both familial and sporadic forms of ALS and FTLD. This yeast model recapitulates neuronal pathology by showing severe cytotoxicity associated with cytoplasmic accumulation of FUS aggregates and a specific interaction between FUS and TDP-43, another ALS-associated protein. […] Specifically, the cellular accumulation of misfolded FUS that disrupts RNA homeostasis in both yeast and higher eukaryotes. This model was validated to be suitable for quantitative HTS (qHTS) use for finding genetic or chemical factors that restore growth. […] Identified compounds that inhibits FUS-yeast toxicity is flagged, re-acquired, and validated for further investigation and optimization.
NIH Chemical Genomics Center [NCGC]
NIH Molecular Libraries Probe Production Centers Network [MLPCN]
Assay Submitter (PI): Frank Shewmaker PhD, Uniformed Services University of the Health Sciences
Compound CP55940 was used as the positive control. Column 1 was treated with CP55940 titration from 92uM (final concentration, 1:2 dilution), while Column 2 was treated with top dose 92uM. Columns 3 and 4 were treated with DMSO only as negative control to assess background and noise signal.
Four hundred fifty microliter of cultured yeast (in 20mL rich medium) provided by Dr. Shewmaker lab was incubated at 30C at 99% humidity for 3hr. The culture was then spun down at 4000rpm for 5min and the cell pellet was resuspended in 2mL of Sdmin Media + ALU(330) + 2.5% Raffinose. One hundred microliter of the suspension was added to 900uL of water and OD of the solution was obtained. Twenty mL of responding medium (provided by Shewmaker lab) + 2.5% raffinose was added to ensure cell density of 0.1; the solution was incubated overnight. Working cell solution (FUS-yeast in Sdmi + Sdmi + 1X ALU + 2% galactose media) was prepared (final OD at 0.005) and 3uL was dispensed in a 1536-well Aurora high based clear bottom assay plates. Controls and library compounds (at various final concentrations from 40uM to 0.32uM) were added using a 1536-well pin array using the Kalypsys pin-tool. The plates were then incubated for 24hrs in a cell-culture incubator (30C; 99% humidity). Absorbance at 600nm was then read using the PerkinElmer ViewLux plate reader.
On to `COc1ccccc1CNC(=O)COC(=O)C(O)(c1ccccc1)c1ccccc1`, for which the growth rescue (activation) is inactive: 3.88%.
Next, `CC1(CBr)Cn2c(nc3ccccc3c2=O)S1` (stereo not given): inactive: 4.62%.
Next, `CN(C(=O)Cc1ccc(Cl)c(Cl)c1)[C@@H]1CCCC[C@H]1N1CCCC1`: inactive: -24.8%; `CC(C)/C=N\N=C(\N)N[N+](=O)[O-]`: inactive: -24.8%; `CN(CCCl)Cc1cc(Cl)c(NC2=NCCN2)c(Cl)c1`: inactive: -15.5%.
Next, `CCOP(=O)(Nc1ccc(C)cn1)OCC`: inactive: -7.44%.
In the case of `CCOP(=O)(NC(=NC(C)c1ccccc1)NC(C)c1ccccc1)OCC` (stereo not given), the growth rescue (activation) is inactive: 26.7%.
Next, `CCC1=CC2Cc3nc4ccc(Cl)cc4c(N)c3C(C1)C2` (stereo not given): inactive: -11.5%.
Take `O=P1(Nc2ccccn2)COc2ccccc2OC1`: the growth rescue (activation) was inactive: -3.93%.
Next, `CC(C)(C)C(=O)NC(Sc1ncccn1)C(Cl)(Cl)Cl` (stereo not given): inactive: -21.7%; `Clc1n[nH]nc1-c1nn[nH][15n]1`: inactive: 8.22%; `O=P1(N(CCCl)CCCl)NCCC(C(F)(F)F)O1` (stereo not given): inactive: -31.9%.
Next, `O=P1(Nc2ncccn2)COc2ccccc2OC1`: inactive: -20.4%; `Cc1ccc(S(=O)(=O)N(CCCN)CCCc2c(C)nc(N)[nH]c2=O)cc1`: inactive: -12.6%; `NS(=O)(=O)c1cccc(NC(=O)COC(=O)C(O)(c2ccccc2)c2ccccc2)c1`: inactive: -5.08%.
To `O=P1(Nc2ccc(Br)cn2)COc2ccccc2OC1` belongs inactive: 19.3%; to `O=[As](O)(c1cccs1)c1cccs1`, inactive: -35%.
Regarding `Cc1ccc(OCC(=O)OC2CN3CCC2CC3)cc1` (stereo not given), the growth rescue (activation) was inactive: 5.87%.
For the molecule `Nc1cccc([As](=O)(O)c2ccccc2)c1`, the growth rescue (activation) was inactive: -17%.
To `Cc1ccc(C(=O)OC2CN3CCC2CC3)cc1` (stereo not given) belongs inactive: -30.6%; to `CC1CCC(C(C)C)C(OP(=O)(Nc2ccccn2)c2ccccc2)C1` (stereo not given), inactive: 32.4%; to `Cc1nn(-c2ccccc2)c2c1P(=O)(N1CCOCC1)N(C)C(c1ccccc1)=N2` (stereo not given), inactive: -5.72%.
To `CCCC1OP(=O)(Nc2ccccc2)OCC1CC` (stereo not given) belongs inactive: 12.3%; to `O=C(/C=C/c1ccccc1)OC1CN2CCC1CC2` (stereo not given), inactive: 14%.
Next, `CN(C)C1(CNC(=O)c2ccc(S(C)(=O)=O)cc2)CCCCC1`: inactive: -15.2%.
In the case of `NC(=O)Nc1ccc([As](=O)(O)O)cc1`, the growth rescue (activation) was inactive: -16.7%.
Next, `CN(C(=O)Cc1ccc(Cl)c(Cl)c1)[C@H]1CC[C@@]2(CCCO2)C[C@@H]1N1CCCC1`: inactive: -17.1%.
To `CN(C)C(=O)c1cc([N+](=O)[O-])cc2c1-c1c(cc([N+](=O)[O-])cc1[N+](=O)[O-])C2=O` belongs inactive: 0.723%; to `O=[N+]([O-])c1ccc2c(c1)nnn2O`, inactive: 22.4%; to `CCOP1(=S)c2c(C)nn(CCC#N)c2N=C(c2ccc(F)cc2)N1C` (stereo not given), inactive: 0.683%.
On to `CN(C(=O)Cc1ccccc1)[C@@H]1CC[C@]2(CCCO2)C[C@H]1N1CCCC1`, for which the growth rescue (activation) is inactive: -15%.
Next, `N#CCCN(C(=O)COC(=O)C(O)(c1ccccc1)c1ccccc1)c1ccc(F)cc1`: inactive: 42.4%; `CS(=O)(=O)c1cc([N+](=O)[O-])c2no[n+]([O-])c2c1`: inactive: 20.6%; `O=P(Nc1nccs1)(Oc1ccccc1)Oc1ccccc1`: inactive: -19.1%.
Regarding `CCOP1(=S)c2c(C)nn(CCC#N)c2N=C(c2ccccc2F)N1C` (stereo not given), the growth rescue (activation) was inactive: 4.74%.
To `O=C(O)COc1ccc([As](=O)(O)O)cc1[N+](=O)[O-]` belongs inactive: 1.2%; to `Nc1ccccc1[As](=O)(O)c1ccccc1`, inactive: -12.2%.
Next, `CCCOP(=S)(Nc1nc(N)cc(=O)[nH]1)OCCC`: inactive: -15.8%; `Nc1cccc2c([As](=O)(O)O)cccc12`: inactive: -24%.
Next, `CCOP(=O)(Nc1cccc2ccccc12)OCC`: inactive: 4.87%; `CS(=O)(=O)c1ccc(Cl)c(NC(=O)COC(=O)C(O)(c2ccccc2)c2ccccc2)c1`: inactive: 37.5%; `COc1cc(C(=O)NCC2(N3CCOCC3)CCCCC2)cc(Cl)c1OC(C)C`: inactive: -1.28%.
For the molecule `O=[As](O)(O)c1cccnc1`, the growth rescue (activation) was inactive: -11.6%.
To `O=C(OC1CN2CCC1CC2)c1ccc(Cl)cc1` (stereo not given) belongs inactive: -7%; to `O=[As](O)(c1cccc(O)c1)c1cccc(O)c1`, inactive: -19.3%; to `Cc1cccc(OCC(=O)OC2CN3CCC2CC3)c1` (stereo not given), inactive: -26.8%.
To `COc1ccc(N/C(=N/P(=O)(N2CCOCC2)N2CCOCC2)N2CCOCC2)cc1` belongs inactive: 5.75%; to `Cc1cc(=O)[nH]c(N[N+](=O)[O-])n1`, inactive: -0.573%.
To `O=C(OC1CN2CCC1CC2)C12CC3CC(CC(C3)C1)C2` (stereo not given) belongs inactive: -16.9%.
As for `Cc1c2c(nc3ccccc13)SC(C(Cl)Cl)C2` (stereo not given), the growth rescue (activation) was inactive: 26.3%.
